# Measurements published in patent US20260272966A1, “COMBINATION TREATMENT FOR OVARIAN CANCER” (THE JOHNS HOPKINS UNIVERSITY, priority 2023, published 2026).
# Tested on: ovarian adenocarcinoma cell lines
# Assay: Cell viability, ovarian adenocarcinoma cell lines taken together
# Type: cell-based
# Conditions: cisplatin-sensitive and cisplatin-resistant ovarian cancer cell lines
# Text: Cell lines, culture conditions, and reagents. Ovarian adenocarcinoma cell lines A2780 and ACRP were maintained in RPMI 1640 containing 10% fetal bovine serum. Ovarian adenocarcinoma lines CaOV-3 and OV90 were maintained in DMEM supplemented with 10% fetal bovine serum. ID8 mouse ovarian surface epithelial cells (MOSE) overexpressing VEGF and β-Defensin (VDID8+) were maintained in RPMI 1640 supplemented with 10% fetal bovine serum. The polyamine analogue ivospemin (SBP-101) was obtained from Panbela Therapeutics, Inc (Waconia, MN). All chemotherapeutics were purchased commercially from Sigma-Aldrich (St. Louis, MO).
# Cell viability assays. Cells were seeded in triplicate wells per condition with a total cell count of 2×10^3 cells per well of a 96-well plate and allowed to adhere overnight. Cells then received 100 μL fresh medium with increasing concentrations of ivospemin. Following 96 hours of ivospemin monotherapy, 20 μL of CellTiter-Blue reagent (Promega, Madison, WI) was added, and following a 3-hour incubation, the fluorescence was measured in black, clear-bottom plates at 560Ex/590Em on a SpectraMax M5 (Molecular Devices, Sunnyvale CA). Wells containing medium alone were used as background controls. […] After an additional 24 hours (96 total hours of ivospemin, 24 hours of chemotherapy), cell viability was determined using the CellTiter-Blue cell viability assay. […]
compound,measurement,value
"COc1cccc2c1C(=O)c1c(O)c3c(c(O)c1C2=O)C[C@@](O)(C(=O)CO)C[C@@H]3OC1CC(N)C(O)C(C)O1 (stereo partly drawn) [doxorubicin, (8S,10S)-10-(4-amino-5-hydroxy-6-methyl-tetrahydro-2H-pyran-2-yloxy)-6,8,11-trihydroxy-8-(2-hydroxyacetyl)-1-methoxy-7,8,9,10-tetrahydrotetracene-5,12-dione]",added in vitro toxicity/benefit of the chemotherapeutic over ivospemin (SBP-101) alone,increased the in vitro toxicity of SBP-101
